What was measured:
[1] = molecular target: T1, human fibrinogen (Homo sapiens, UniProt P02675+P02679); experiment: Gel formation on adding peptide-modified HSA to fibrinogen solution (Example 1); format: biochemical; settings: 5 μl peptide-modified HSA (7 mg/ml) added to 0.3 ml fibrinogen solution 16 mg/ml; absence of thrombin
T1 construct: purchased Scottish National Blood Transfusion Service, Edinburgh, Scotland
Procedure: Human serum albumin (HSA) was reacted with a 40-fold molar excess of the linker succinimidyl-4-(N-maleimidomethyl)cyclohexane-1-carboxylate (SMCC) at pH 7.4. The modified protein (HSA-SMCC) was purified and it was determined that on average one mole of HSA was modified with 18 moles of SMCC. Either GPRPGGGGGGC (B10; SEQ ID NO: 24) or LVPRGPRPGGGGGGC (TC-15; SEQ ID NO: 25) peptide was added to HSA-SMCC at 1.5 mole excess in relation to maleimide moieties. The peptide-modified HSA protein was then purified from un-reacted peptide and stored at −80° C. at 7 mg/ml. Lyophilised human fibrinogen was solubilized in water at 16 mg/ml as described by supplier (Scottish National Blood Transfusion service).
The exposed GPRP peptide sequence is known to bind to the “a” pocket within the carbonyl region of the two distal domains (D) of fibrinogen (FIG. 1b). It is believed that the HSA modified with multiple exposed GPRP sequences (B10) acts as a branching point for polymerisation of fibrinogen (FIG. 1c). The gel is formed in the absence of thrombin.

Protein sequences, listed by entry. Tags and fused reporters are not part of them. Residues count along the entry.
UniProt P02675, 31-491: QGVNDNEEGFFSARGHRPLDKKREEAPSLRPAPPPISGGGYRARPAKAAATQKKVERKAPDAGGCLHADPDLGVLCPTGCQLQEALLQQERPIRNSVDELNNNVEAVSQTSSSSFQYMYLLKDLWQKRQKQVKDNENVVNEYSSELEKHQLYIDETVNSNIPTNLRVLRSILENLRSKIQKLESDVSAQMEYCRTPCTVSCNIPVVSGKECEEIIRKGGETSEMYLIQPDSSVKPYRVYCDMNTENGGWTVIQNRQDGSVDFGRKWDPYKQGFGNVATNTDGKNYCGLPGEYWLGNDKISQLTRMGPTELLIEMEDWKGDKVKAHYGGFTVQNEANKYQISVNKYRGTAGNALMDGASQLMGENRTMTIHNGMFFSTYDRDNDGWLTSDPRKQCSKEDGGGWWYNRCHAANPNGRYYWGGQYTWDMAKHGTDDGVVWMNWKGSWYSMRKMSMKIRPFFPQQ
UniProt P02679, 27-437 isoform P02679-2 limits assumed: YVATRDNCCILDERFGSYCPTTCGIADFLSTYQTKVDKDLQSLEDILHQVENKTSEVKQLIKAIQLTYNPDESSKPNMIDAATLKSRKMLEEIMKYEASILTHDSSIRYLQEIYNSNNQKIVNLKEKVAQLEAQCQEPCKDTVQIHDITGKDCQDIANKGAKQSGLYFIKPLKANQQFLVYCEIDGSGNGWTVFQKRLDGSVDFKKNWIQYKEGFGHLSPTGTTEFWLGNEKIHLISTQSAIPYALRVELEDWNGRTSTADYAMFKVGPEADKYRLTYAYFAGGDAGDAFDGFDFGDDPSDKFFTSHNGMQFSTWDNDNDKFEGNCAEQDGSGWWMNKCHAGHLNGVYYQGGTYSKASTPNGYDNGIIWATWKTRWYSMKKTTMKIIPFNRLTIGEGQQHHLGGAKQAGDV

[2] = molecular target: T1, human fibrinogen; experiment: Visual determination of gel formation (polymerisation of fibrinogen) after mixing fibrinogen with HSA solutions (Example 2); format: biochemical; settings: 25 ul sample mixed with 0.2 ml fibrinogen at 8, 16, 32 or 64 mg/ml; after 0.5 h at room temperature
Procedure: Human serum albumin (HSA) at 10 mg/ml was reacted with a 5, 10, 20 or 40-fold molar excess of the linker sulfosuccinimidyl-4-(N-maleimidomethyl)cyclohexane-1-carboxylate (Sulfo-SMCC) at pH 7.4 with a total volume of 0.7 ml. The modified protein (HSA-SMCC) was purified by a Zebra™ Desalt Spin Column (Pierce, Rockford, Ill.) and it was determined that on average one mole of HSA was modified with 5, 8, 16 or 18 moles of Sulfo-SMCC, respectively. To determine the number of maleimide groups bound per HSA molecule, a sample of 3 nmoles of HSA was incubated with a known amount of cysteine (100 nmoles) in buffer at room temperature for 30 min. The remaining cysteine was then reacted with 1 mmol of 5,5-dithiobis(2-nitrobenzoate) (DTNB) for 20 min and A412 was measured. The maleimide level was calculated by comparing the absorbance of the control and protein samples. Either GPRPGGGGGGC (B10; SEQ ID NO: 24) or LVPRGPRPGGGGGGC (TC-15; SEQ ID NO: 25) peptide was added to HSA-SMCC at 1.5 mole excess in relation to maleimide moieties. […] The concentration of fibrinogen and albumin was determined from the absorbance at 280 nm (A280) using a conversion factor of 1% Fibrinogen E280=15 and 1% HSA E280=13.8
The polymerisation of fibrinogen was initially monitored visually after the mixing of fibrinogen with HSA solutions. […] The formation of a gel was visually determined after 0.5 h at room temperature.

Row | gel formation [1] | formation of a gel (polymerisation of fibrinogen), visually determined [2] | Substance
1 | an instant gel was observed |  | B10-HSA: HSA-SMCC (on average 18 moles SMCC per mole HSA) conjugated with peptide GPRPGGGGGGC (B10; SEQ ID NO: 24)
2 | no gel was observed |  | TC-15: HSA-SMCC conjugated with blocked precursor peptide LVPRGPRPGGGGGGC (TC-15; SEQ ID NO: 25)
3 |  | no gel formation was observed | unmodified HSA: Human serum albumin without linker or peptide, used as control [reference compound]

Reference: patent publication US9913876B2, “Biogel” (Haemostatix Limited, priority 2006, dated 2018)
